# Results taken from PMC10958125 (Clinical and Translational Medicine, 2024).
# Amino acid sequences for entries named in this document (tags omitted). Residues count along the entry.
# UniProt P08069, 31-1367: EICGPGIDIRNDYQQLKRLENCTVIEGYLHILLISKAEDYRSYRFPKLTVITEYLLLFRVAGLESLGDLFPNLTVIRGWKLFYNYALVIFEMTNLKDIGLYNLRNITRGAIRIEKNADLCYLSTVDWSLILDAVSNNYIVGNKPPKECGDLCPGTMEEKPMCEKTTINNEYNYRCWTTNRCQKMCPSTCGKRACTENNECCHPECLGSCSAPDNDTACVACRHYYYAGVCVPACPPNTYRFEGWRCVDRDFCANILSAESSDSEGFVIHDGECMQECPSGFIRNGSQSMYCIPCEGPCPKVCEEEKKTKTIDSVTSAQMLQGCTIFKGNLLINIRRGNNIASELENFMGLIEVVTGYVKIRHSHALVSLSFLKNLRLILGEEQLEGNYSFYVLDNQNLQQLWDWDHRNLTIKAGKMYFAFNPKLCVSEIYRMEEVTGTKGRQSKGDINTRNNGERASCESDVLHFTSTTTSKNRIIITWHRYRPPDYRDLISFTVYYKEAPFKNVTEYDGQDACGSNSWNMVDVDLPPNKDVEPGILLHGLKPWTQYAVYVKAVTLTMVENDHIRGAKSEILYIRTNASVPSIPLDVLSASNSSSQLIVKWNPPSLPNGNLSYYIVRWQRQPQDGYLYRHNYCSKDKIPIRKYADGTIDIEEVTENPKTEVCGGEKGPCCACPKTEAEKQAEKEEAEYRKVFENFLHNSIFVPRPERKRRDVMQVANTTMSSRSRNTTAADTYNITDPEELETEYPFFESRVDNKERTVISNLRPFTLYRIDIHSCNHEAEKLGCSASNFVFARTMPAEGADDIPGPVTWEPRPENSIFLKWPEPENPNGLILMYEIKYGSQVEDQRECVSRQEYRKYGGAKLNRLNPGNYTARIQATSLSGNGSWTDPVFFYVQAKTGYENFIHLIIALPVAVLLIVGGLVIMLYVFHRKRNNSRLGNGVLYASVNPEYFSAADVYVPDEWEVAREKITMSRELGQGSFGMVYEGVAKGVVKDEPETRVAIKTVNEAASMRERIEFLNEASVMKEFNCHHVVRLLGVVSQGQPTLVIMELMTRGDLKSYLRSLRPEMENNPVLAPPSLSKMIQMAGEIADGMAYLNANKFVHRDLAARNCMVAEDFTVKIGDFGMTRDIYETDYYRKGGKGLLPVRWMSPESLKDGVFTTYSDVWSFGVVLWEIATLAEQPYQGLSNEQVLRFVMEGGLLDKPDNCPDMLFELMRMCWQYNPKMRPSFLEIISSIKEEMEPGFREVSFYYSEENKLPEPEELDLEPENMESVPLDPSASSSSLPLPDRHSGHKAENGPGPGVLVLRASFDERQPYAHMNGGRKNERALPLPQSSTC
# Target: IGF‐1R (Homo sapiens, UniProt P08069)
# Assay: Ligand-dependent phosphorylation of IGF-1R(Y1131) in PBMCs stimulated ex vivo with rhIGF-1
# Settings: normal volunteer, lycopene 150mg/d x 7d
compound,measurement,setting,value
CC(C)=CCC/C(C)=C/C=C/C(C)=C/C=C/C(C)=C/C=C/C=C(C)/C=C/C=C(C)/C=C/C=C(\C)CCC=C(C)C [lycopene],"Reduction in ligand-stimulated phosphorylation of the IGF-1R, nadir",12 days after start of dosing,65%
same,Reduction in ligand-stimulated phosphorylation of the IGF-1R,at 7 days,50%
